Patent publication US20210284688A1, “MUCUS-PENETRATING PEPTIDES AND SCREENING ASSAY” (BOARD OF REGENTS, THE UNIVERSITY OF TEXAS SYSTEM, priority 2016, published 2021)

System: complex mucin
Details: effective diffusivity in complex mucin (CM) compared to PBS; peptide on p3 of M13 phage; FIG. 15

ISLPSPT [SEQ ID NO: 17]
phage diffusivity: increased
